Amino acid sequences for entries named in this document (tags omitted). A change or cut given only in a name is not applied to a line headed by its entry.
UniProt P33534: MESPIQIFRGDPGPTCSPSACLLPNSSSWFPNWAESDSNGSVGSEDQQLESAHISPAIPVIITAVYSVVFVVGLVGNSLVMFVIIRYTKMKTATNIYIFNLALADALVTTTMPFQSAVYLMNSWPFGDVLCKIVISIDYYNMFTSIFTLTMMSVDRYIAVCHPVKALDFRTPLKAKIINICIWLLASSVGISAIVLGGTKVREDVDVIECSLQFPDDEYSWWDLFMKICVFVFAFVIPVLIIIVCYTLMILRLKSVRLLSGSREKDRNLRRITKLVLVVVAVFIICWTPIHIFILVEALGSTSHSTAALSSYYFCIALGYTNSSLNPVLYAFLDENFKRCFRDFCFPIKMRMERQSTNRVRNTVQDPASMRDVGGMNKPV
UniProt P41145: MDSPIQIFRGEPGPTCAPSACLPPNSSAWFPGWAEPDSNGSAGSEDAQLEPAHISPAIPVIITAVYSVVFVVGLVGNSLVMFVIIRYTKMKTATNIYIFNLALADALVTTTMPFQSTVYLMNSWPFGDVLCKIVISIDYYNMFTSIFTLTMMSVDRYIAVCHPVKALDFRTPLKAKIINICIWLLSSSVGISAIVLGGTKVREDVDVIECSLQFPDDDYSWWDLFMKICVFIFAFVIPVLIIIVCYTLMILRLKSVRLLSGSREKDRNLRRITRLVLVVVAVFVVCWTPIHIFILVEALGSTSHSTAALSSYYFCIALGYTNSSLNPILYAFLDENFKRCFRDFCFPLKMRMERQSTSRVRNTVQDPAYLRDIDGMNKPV

In patent US20230250098A1 (priority 2021, published 2023):

Columns and labels:
FLAG-mouse κOP = FLAG-mouse κOP (Mus musculus, UniProt P33534); assay: GloSensor cAMP inhibition assay in transfected HEK cells; assay type: cell-based; conditions: efficacy normalized to positive control U50,488
κOP = κOP (Homo sapiens, UniProt P41145); assay: PathHunter β-arrestin2 recruitment assay; assay type: cell-based; conditions: normalized to positive control U50,488

For `CN(C(=O)Cc1ccc(Cl)c(Cl)c1)[C@@H]1CCCC[C@H]1N1CCCC1`, the “cAMP α” value (FLAG-mouse κOP) was 100 and the “β-arrestin 2 α” value (κOP) was 100.
